Laboratory results taken from US6706713B1, “Conjugate for treating inflammatory infectious and/or skin diseases” (priority 1995, dated 2004).

Tested on: inflammation in a rat's leg
Experiment: Uptake of radioactively labeled MTX-HSA in an inflammation at the leg of a rat (scintigraphy)
Format: in vivo
Conditions: leg inflammation produced by injection of sephadex beads, non-inflamed leg as control, heart and liver regions also measured
Description: Uptake of Radioactively Labeled MTX-HSA in an Inflammation at the Leg of a Rat
An inflammation was produced as usual in a rat's leg by injection of sephadex beads. Then, the rat was given the radioactively labeled conjugate MTX-HSA according to the invention. MTX-HSA was determined scintigraphically in the inflamed leg, the non-inflamed leg (as control) as well as the heart and liver regions.

MTX-HSA
scintigraphic detection of uptake of the conjugate in the inflamed leg: accumulates in the inflamed leg
